Reference: PubChem BioAssay AID1626 (SRMLSC, 2009)
The campaign covered roughly 220,000 compounds. About 2,000 (0.91%) were called active. Listed are the inconclusive results; actives and inactives stand elsewhere. No stated cut-off is given here; in the data, inconclusive means inhibition above about 80% without an active follow-up result; inactive means below that; test concentration not stated here.

Assay: M. tuberculosis H37Rv growth inhibitors, H37Rv strain (AID 1626);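 further: bacteria incubated seven days before Alamar blue readout; 0% = bacteria only wells and 100% = bacteria with antibiotic wells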
Settings: stronger effect = higher value, concentration not given here

| SMILES | inhibition |
| --- | --- |
| O=c1c2cc([N+](=O)[O-])ccc2[nH]c2c([N+](=O)[O-])cc([N+](=O)[O-])cc12 | inconclusive: 100% |
| CCN(CC)C(=S)SC(NC=O)C(Cl)(Cl)Cl (configuration not stated) | inconclusive: 100% |
